Molecular target: iLight (purified protein, IsPadC-PCM with substitutions I68F, H80Q, A86T, R90S, S242C, R274K, R295H, I360V and L464V) (Idiomarina sp.)
Assay: size-exclusion chromatography at […] in darkness after 30 min of 660 nm light

fraction of the protein that elutes as a tetramer: 25%
Substance: iLight (purified protein, IsPadC-PCM with substitutions I68F, H80Q, A86T, R90S, S242C, R274K, R295H, I360V and L464V)
